The values below come from US6852744B2, “Pyrrolidine derivatives and their use as chymase inhibitor” (Dainippon Pharmaceutical Co., Ltd., priority 2000, dated 2005).

The chains behind the UniProt entries cited, without tags or fusion partners. Residues count along the entry.
UniProt P56435, 22-247 limits assumed: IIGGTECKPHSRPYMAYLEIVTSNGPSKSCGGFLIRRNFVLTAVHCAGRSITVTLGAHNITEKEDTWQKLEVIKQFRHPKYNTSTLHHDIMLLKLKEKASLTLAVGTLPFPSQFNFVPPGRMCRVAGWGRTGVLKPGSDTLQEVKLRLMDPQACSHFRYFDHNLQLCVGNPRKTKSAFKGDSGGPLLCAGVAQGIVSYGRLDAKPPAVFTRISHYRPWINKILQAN

This assay concerns the target monkey chymase (Macaca fascicularis, UniProt P56435). In words: Monkey chymase inhibitory activity (in vitro, angiotensin I substrate). Conditions: read-out: Monkey Chymase Inhibition (IC50:nM), chymase purified from monkey cheek pouch and stomach, 37° C.
For the compound `Cc1onc(-c2c(Cl)cccc2Cl)c1C(=O)N[C@H](C(=O)N1CCC[C@H]1C(=O)NC(Cc1ccccc1)C(=O)C(F)(F)F)C(C)C` (some centres unmarked), the IC50 (commonly the concentration at which inhibition is half-maximal) amounted to 170 nM.
Then `Cc1onc(-c2ccccc2Cl)c1C(=O)N[C@H](C(=O)N1CCC[C@H]1C(=O)NC(Cc1ccccc1)C(=O)C(F)(F)F)C(C)C` (some centres unmarked), with 120 nM; and `Cc1onc(C(N)=O)c1C(=O)N[C@H](C(=O)N1CCC[C@H]1C(=O)NC(Cc1ccccc1)C(=O)C(F)(F)F)C(C)C` (some centres unmarked), with 68 nM; and `Cc1onc(-c2ccccc2)c1C(=O)N[C@H](C(=O)N1CCC[C@H]1C(=O)NC(Cc1ccccc1)C(=O)C(F)(F)F)C(C)C` (some centres unmarked), with 73 nM.
For `CC(=O)c1onc(C)c1C(=O)N[C@H](C(=O)N1CCC[C@H]1C(=O)NC(Cc1ccccc1)C(=O)C(F)(F)F)C(C)C` (some centres unmarked), the IC50 amounted to 76 nM.
Take `Cc1noc(-c2ccc(C(F)(F)F)cc2)c1C(=O)N[C@H](C(=O)N1CCC[C@H]1C(=O)NC(Cc1ccccc1)C(=O)C(F)(F)F)C(C)C` (some centres unmarked): the IC50 came to 350 nM.
`Cc1onc(-c2c(F)cccc2Cl)c1C(=O)N[C@H](C(=O)N1CCC[C@H]1C(=O)NC(Cc1ccccc1)C(=O)C(F)(F)F)C(C)C` (some centres unmarked): the IC50 was 89 nM.
On to `CCc1noc(C)c1C(=O)N[C@H](C(=O)N1CCC[C@H]1C(=O)NC(Cc1ccccc1)C(=O)C(F)(F)F)C(C)C` (some centres unmarked), for which the IC50 is 150 nM.
